Assay results as given in ChEMBL document CHEMBL4257579, “Analogs of penfluridol as chemotherapeutic agents with reduced central nervous system activity” (Bioorg Med Chem Lett, 2018).

Chains of the proteins cited; added tags and fusions are not shown. Lines headed by an entry give the natural chain unless they say otherwise; changes in a name come on top.
UniProt P41143, whole entry: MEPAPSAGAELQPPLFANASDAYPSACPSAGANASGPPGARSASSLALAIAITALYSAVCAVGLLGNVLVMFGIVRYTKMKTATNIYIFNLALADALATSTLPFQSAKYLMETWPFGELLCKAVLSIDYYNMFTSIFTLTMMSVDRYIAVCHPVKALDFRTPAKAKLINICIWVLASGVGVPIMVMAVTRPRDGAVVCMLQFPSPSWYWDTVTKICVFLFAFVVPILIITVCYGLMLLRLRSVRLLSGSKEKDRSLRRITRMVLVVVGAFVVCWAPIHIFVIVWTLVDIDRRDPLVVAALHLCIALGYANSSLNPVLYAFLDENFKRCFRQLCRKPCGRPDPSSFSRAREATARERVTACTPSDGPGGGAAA
UniProt P41595, whole entry: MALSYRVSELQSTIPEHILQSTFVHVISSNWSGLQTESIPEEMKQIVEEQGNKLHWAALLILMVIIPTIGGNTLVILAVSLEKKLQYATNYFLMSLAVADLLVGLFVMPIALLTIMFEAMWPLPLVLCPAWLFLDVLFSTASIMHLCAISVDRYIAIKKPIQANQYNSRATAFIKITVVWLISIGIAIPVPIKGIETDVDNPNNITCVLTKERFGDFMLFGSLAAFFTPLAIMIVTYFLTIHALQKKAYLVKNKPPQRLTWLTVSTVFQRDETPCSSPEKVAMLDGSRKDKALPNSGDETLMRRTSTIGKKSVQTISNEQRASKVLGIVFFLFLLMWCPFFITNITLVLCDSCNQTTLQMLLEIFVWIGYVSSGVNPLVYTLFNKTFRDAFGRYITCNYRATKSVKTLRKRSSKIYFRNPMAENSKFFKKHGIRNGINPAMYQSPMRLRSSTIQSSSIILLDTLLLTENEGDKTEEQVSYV
UniProt P25021, whole entry: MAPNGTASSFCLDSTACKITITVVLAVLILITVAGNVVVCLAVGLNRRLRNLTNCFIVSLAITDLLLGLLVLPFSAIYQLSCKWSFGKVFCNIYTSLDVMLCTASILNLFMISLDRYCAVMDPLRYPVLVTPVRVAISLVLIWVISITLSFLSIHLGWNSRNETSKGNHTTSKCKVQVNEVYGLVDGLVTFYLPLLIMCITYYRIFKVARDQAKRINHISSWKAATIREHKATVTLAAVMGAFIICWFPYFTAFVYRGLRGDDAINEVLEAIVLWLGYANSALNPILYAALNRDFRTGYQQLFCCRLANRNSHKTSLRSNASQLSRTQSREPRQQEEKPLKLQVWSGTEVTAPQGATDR
UniProt P47898, whole entry: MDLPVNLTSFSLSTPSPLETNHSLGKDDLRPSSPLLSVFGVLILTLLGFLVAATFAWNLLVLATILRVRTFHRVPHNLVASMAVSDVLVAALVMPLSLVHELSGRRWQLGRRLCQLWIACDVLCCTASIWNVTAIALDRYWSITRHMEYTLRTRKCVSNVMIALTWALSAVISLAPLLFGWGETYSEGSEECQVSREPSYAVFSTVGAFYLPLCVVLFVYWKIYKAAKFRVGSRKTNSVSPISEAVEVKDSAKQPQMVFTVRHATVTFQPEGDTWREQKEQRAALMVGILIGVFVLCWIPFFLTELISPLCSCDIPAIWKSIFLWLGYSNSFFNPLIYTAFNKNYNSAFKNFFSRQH
UniProt P35367, whole entry: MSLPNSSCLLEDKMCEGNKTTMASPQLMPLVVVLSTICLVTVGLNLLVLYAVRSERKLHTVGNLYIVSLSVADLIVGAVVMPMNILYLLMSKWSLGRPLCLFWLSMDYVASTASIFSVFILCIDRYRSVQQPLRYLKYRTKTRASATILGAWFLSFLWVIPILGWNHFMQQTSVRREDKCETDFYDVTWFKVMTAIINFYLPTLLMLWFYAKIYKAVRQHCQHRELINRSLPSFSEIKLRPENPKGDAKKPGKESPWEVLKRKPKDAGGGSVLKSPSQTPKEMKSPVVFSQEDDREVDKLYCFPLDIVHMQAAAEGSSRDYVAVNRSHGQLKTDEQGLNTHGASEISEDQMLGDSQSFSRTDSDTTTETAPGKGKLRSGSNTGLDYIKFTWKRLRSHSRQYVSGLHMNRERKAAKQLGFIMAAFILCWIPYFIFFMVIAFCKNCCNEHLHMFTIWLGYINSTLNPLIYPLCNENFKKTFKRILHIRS
UniProt P28221: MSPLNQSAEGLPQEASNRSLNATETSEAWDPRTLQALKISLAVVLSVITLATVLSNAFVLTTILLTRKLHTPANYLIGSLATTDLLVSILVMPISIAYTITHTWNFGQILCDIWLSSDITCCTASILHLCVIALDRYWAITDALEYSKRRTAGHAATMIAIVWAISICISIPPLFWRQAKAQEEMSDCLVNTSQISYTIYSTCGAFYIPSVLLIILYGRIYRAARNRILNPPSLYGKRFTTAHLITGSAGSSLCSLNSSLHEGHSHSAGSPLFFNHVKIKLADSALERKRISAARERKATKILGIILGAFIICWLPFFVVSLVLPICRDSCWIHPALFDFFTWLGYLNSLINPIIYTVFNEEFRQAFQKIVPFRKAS

Tests used:
Assay type in all cases: cell-based
Design in all cases: concentration or dose not given beside the values
Conditions in all cases: concentration not given here
[1] = molecular target: Delta-type opioid receptor (Homo sapiens, UniProt P41143); experiment: Displacement of [3H]DADLE from human DOR expressed in HEK cells by radioligand binding assay relative to control
[2] = molecular target: 5-hydroxytryptamine receptor 2B (Homo sapiens, UniProt P41595); experiment: Displacement of [3H]LSD from human 5-HT2B receptor expressed in HEK cells by radioligand binding assay relative to control
Histamine H2 receptor = Histamine H2 receptor (Homo sapiens, UniProt P25021); experiment: Displacement of [3H]Cimetidine from human H2 receptor expressed in HEK cells by radioligand binding assay relative to control
[3] = molecular target: 5-hydroxytryptamine receptor 5A (Homo sapiens, UniProt P47898); experiment: Displacement of [3H]LSD from human 5-HT5A receptor expressed in Flp-In CHO cells by radioligand binding assay relative to control
Histamine H1 receptor = Histamine H1 receptor (Homo sapiens, UniProt P35367); experiment: Displacement of [3H]Pyrilamine from human H1 receptor expressed in HEK cells by radioligand binding assay relative to control
[4] = molecular target: 5-hydroxytryptamine receptor 1D (Homo sapiens, UniProt P28221); experiment: Displacement of [3H]5-CT from human 5-HT1D receptor expressed in HEK293T cells by radioligand binding assay relative to control

OC1(c2ccc(Cl)c(C(F)(F)F)c2)CCN(CCCCCc2ccc(F)cc2)CC1
inhibition [1]: 49.2%
inhibition [2]: 25%

COc1ccc(N(CCCCN2CCC(O)(c3ccc(Cl)c(C(F)(F)F)c3)CC2)c2ccc(OC)cc2)cc1
inhibition (Histamine H2 receptor): 15.3%

OC1(c2ccc(Cl)c(C(F)(F)F)c2)CCN(CCCC(c2ccccc2)c2ccccc2)CC1
inhibition [3]: 31%

OC1(c2ccc(Cl)c(C(F)(F)F)c2)CCN(CCCCN(c2ccc(F)cc2)c2ccc(F)cc2)CC1
inhibition (Histamine H2 receptor): 16.6%
inhibition (Histamine H1 receptor): 37.5%

OC1(c2ccc(Cl)c(C(F)(F)F)c2)CCN(CCCC=C(c2ccc(F)cc2)c2ccc(F)cc2)CC1
inhibition [4]: 50%
